# Laboratory results reported in patent US20060083754A1, “Pharmaceutical combinations comprising corticoids and immunosuppressants for treating corticoid- and/or calcineurin inhibitors-resistant diseases” (priority 2003, published 2006).
# Where “and” joins values, the source holds several entries; their conditions need not be identical. Equal entries are not always repeated.
# Test system: human peripheral blood mononuclear cells (PBMC)
# Test: T-cell proliferation assay (BrdU ELISA), PBMC stimulated with anti-CD3 mAb + anti-CD28 mAb
# Format: cell-based
smiles,measurement,value
"C[C@@H]1C[C@H]2[C@@H]3CCC4=CC(=O)C=C[C@]4(C)[C@@]3(F)[C@@H](O)C[C@]2(C)[C@@]1(O)C(=O)CO [DEX, dexamethasone]",OD,0.885 and 0.687 and 0.643 and 0.866
